Measured affinities in a library of Ab-91 heavy chain variants

Antigen: PDVDLGDISGINAS, a 14-residue peptide of the SARS-CoV-2 spike HR2 region.

The variants keep the light chain, the linker and the frameworks of Ab-91 (scFv order VL, the linker GGGGSGGGGSGGGGS, VH).
VL: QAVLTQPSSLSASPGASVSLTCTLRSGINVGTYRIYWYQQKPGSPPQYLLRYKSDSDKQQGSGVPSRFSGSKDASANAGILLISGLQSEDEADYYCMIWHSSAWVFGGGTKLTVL
VH: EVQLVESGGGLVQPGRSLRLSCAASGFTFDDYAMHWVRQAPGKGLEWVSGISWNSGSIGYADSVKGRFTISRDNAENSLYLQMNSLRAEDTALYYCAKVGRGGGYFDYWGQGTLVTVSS

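Library AAYL51 holds single substitutions and randomly drawn double and triple substitutions in the CDRs. AlphaSeq pools MATa yeast showing the antibodies with MATalpha yeast showing the peptide. Binding brings cells together so that they mate, and sequencing counts the barcode pairs among the diploids. Read counts were normalised to the haploid input and turned into Kd by a linear fit to BCL2-family pairs of known affinity, for each replicate. Each pool was mated in three replicate cultures.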

The parent's heavy chain CDRs are GFTFDDYAMH, GISWNSGSIGYADSVK, VGRGGGYFDY; each variant's own CDRs replace them letter for letter.
Every variant below is changed at A33 of the VH (sequential numbering).
Each Kd is an estimate from the mating assay, the geometric mean of the replicates in which the pair was seen; lower is stronger.
An entry "nd" has no value in the source: the pair was not observed among the diploids in any replicate. This suggests poor binding but is not conclusive.
Parent in this assay: reference entry 72 nM, copy in this library 7.5 nM.
Empty control strains, which show no peptide, gave a signal in 21% of pairings with library AAYL51; the median was 34 µM and 95% of these signals were weaker than 1.8 µM. No background was subtracted.

- GFTFDDYYMH, GISWNSGSIGYATSVK, VGRGGGYFDR -> 200 µM (3 of 3 replicates)
- GFTFDDYYMH, GISWNSGCIGYADSVK, VGRGGGYFDY -> 81 µM (3 of 3 replicates)
- GFTFDDYGMD, GISKNSGSIGYADSVK, VGRGGGYFDY -> 44 µM (3 of 3 replicates)
- GFTFDDYRMR, GISWNSGSIGYADSVK, VGQGGGYFDY -> nd (0 of 3 replicates)
- GPTFDDYFMH, GISWNSGSIGYADSVK, VGRGGGYEDY -> nd (0 of 3 replicates)
- GFTFDDYGMH, GYSWNKGSIGYADSVK, VGRGGGYFDY -> nd (0 of 3 replicates)
- GFTFDDYNMH, GISWNSHSIGYADSTK, VGRGGGYFDY -> 45 µM (1 of 3 replicates)
- GFTFDDYKMH, GISWNSGVIGYADSVK, VGRGGGYFDY -> nd (0 of 3 replicates)
- GFTFDDYNMH, GISWNSGSIGYADAVK, CGRGGGYFDY -> 160 µM (3 of 3 replicates)
- GFTEDDYVMH, GISWNSGSIGYADSVK, VGRGGGDFDY -> nd (0 of 3 replicates)
- GFTFDDYCMH, GISWACGSIGYADSVK, VGRGGGYFDY -> nd (0 of 3 replicates)
- GFTFDDYNMH, GISWLSGSIGYADSVK, VGRGGGNFDY -> 140 µM (3 of 3 replicates)
- GFTFDDYTMH, GIDWNSGSIGYADSVR, VGRGGGYFDY -> nd (0 of 3 replicates)
- GFTPDDYGMH, GISWNSGSIGYADSVK, VGRGGGYIDY -> nd (0 of 3 replicates)
- GFTFDDYTMH, GISWNSGNIGYADSVK, VGRGGGYFDS -> 99 µM (1 of 3 replicates)
- GFTFDNYGMH, GISWNSGSIGYADSVK, VGRGEGYFDY -> 39 µM (1 of 3 replicates)
- GFTFDDYSMH, GISWMSGSIGYADSVK, VGRGGGYLDY -> 35 µM (3 of 3 replicates)
- GFTFDDYLMH, GISENSGSIGYADSVK, VGRGGGYPDY -> 26 µM (1 of 3 replicates)
- GFTFDDYCMH, GINWNSGSIGYADSRK, VGRGGGYFDY -> nd (0 of 3 replicates)
- GFTFDDYNMH, GISWNSFSIGYADSVK, VGRGGGYFDY -> 92 µM (1 of 3 replicates)
- GFTFDDYIMH, GISWNSGSIGYADSVK, VGRGGGYFDY -> 9.4 µM (1 of 3 replicates)
- GFTFDDYIMH, GISWNSGSIGYADSVK, VGRGGGYVDY -> 2.0 µM (1 of 3 replicates)
- GFTFVDYLMH, GISWNSGSIGYADSVK, VVRGGGYFDY -> 2.1 µM (1 of 3 replicates)
- GFTFDDYGMH, GISWNSGSIGYADSVK, VGWGGGYFIY -> 14 µM (1 of 3 replicates)
- FFTFDDYIMM, GISWNSGSIGYADSVK, VGRGGGYFDY -> 110 µM (2 of 3 replicates)
- GFTFDDYYMH, GISWNSGSIGYADSVK, VGRGGGYFHK -> nd (0 of 3 replicates)
- GFTFDDYVMH, GRSWNSGSIGYADSVH, VGRGGGYFDY -> nd (0 of 3 replicates)
- GFTFDDYDMH, GISWNSGSIWYADSVK, VGRGGGYFDY -> 7.3 µM (1 of 3 replicates)
- GFTFDDYWMH, DISWNSGSIGYADSVK, VGRGGGYFDM -> nd (0 of 3 replicates)
- GFTFDDYYMH, DISWNSGSIGYADSVK, VGRGGGYFHY -> nd (0 of 3 replicates)
- GFTFDDYDMH, GISWNSGSIGYADSVK, NRRGGGYFDY -> 27 µM (2 of 3 replicates)
- GFTFDDYETH, GISWNSGSIGYAKSVK, VGRGGGYFDY -> nd (0 of 3 replicates)
- GFTFDDWRNH, GISWNSGSIGYADSVK, VGRGGGYFDY -> 64 µM (1 of 3 replicates)
- GFTFDDSYMH, GISWNSGSIGYADSVK, VGRGGGYFIY -> 490 µM (1 of 3 replicates)
- GFTWDDYSMH, GISWNKGSIGYADSVK, VGRGGGYFDY -> nd (0 of 3 replicates)
- GFTFLKYDMH, GISWNSGSIGYADSVK, VGRGGGYFDY -> nd (0 of 3 replicates)
- GFTFDDYPMH, GISWNSGSSGYADSVK, SGRGGGYFDY -> 79 µM (2 of 3 replicates)
- GFTFDDYRMH, GISWNSGSIGYKDSVK, VGRGGGYFDY -> 4.9 µM (1 of 3 replicates)
- GFTFDDYNTH, GISWNSGSIGYADSVK, VGRGGGYFDY -> 80 µM (2 of 3 replicates)
- GFTFDDYCMH, GISWNSGSIPYADDVK, VGRGGGYFDY -> 110 µM (2 of 3 replicates)
- GFTFDHYVMH, GISWNSGSIGYADSVK, SGRGGGYFDY -> nd (0 of 3 replicates)
- GFTFDDYKMH, GISWNSGSIGYADSVS, VGRGGGYFDY -> 280 µM (2 of 3 replicates)
- GFTFDDYPMH, GISWNSGSIGYADSAK, VGRGGGYFDR -> 85 µM (1 of 3 replicates)

For reference, 5 entries of the list once more:

| CDR-H1 | CDR-H2 | CDR-H3 | Kd (apparent) | detected |
|---|---|---|---|---|
| GFTEDDYVMH | GISWNSGSIGYADSVK | VGRGGGDFDY | nd | 0/3 |
| GFTFDDYNTH | GISWNSGSIGYADSVK | VGRGGGYFDY | 80 µM | 2/3 |
| GFTFDDYDMH | GISWNSGSIWYADSVK | VGRGGGYFDY | 7.3 µM | 1/3 |
| GFTFDHYVMH | GISWNSGSIGYADSVK | SGRGGGYFDY | nd | 0/3 |
| GFTFDDYKMH | GISWNSGSIGYADSVS | VGRGGGYFDY | 280 µM | 2/3 |

The measurements come from Engelhart et al. 2022 (doi:10.1038/s41597-022-01779-4) through the FLAb antibody collection.